# This is a selection; strong and weak results do not stand in their true shares. Activity calls are given as the source filed them. The call rests on the fitted dose curve; in most records, active means well fitted curve in the direction sought with a large enough effect; inactive means no such curve, though single readings can be large or run the other way.
# Molecular target: Alpha-galactosidase A (Homo sapiens) (UniProt P06280)
# Assay: Counterscreen for Glucocerebrosidase Inhibitors: qHTS Assay for Coffee Bean alpha-Galactosidase at pH 5.9;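 further: plate controls were uninhibited enzyme for no effect and no-enzyme basal signal for full effect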
# Conditions: coffee bean alpha-galactosidase enzyme assay; at 76.9 µM (top of the series)
# From the text: NIH Chemical Genomics Center [NCGC]
# NIH Molecular Libraries Screening Centers Network [MLSCN]
# PI Name: Zheng, Wei [NIH]
# Alpha-galactosidase is a homodimeric glycoprotein that hydrolyzes the terminal alpha-galactosyl moieties from glycolipids and glycoproteins. Deficiency of this enzyme results in Fabry Disease with progressive accumulation of globotriaosylceramide and other glycosphingolipids in vascular endothelial cells that causes renal failure, myocardial infarction and stroke, and premature death in patients. It has reported that the improper folding and trafficking of alpha-galactosidase resulted from the genetic mutations may account for a significant numbers of Fabry patients. […]
# This is a fluorogenic enzyme assay with 4-Methylumbelliferyl alpha-D-galactopyranoside as the substrate and green coffee bean alpha-glucosidase (from Sigma-Aldrich) as the enzyme preparation. […] 4-Methyllumbelliferone, can be excited at 365 nm and emits at 440 nm which can be detected by a standard fluorescence plate reader. […] In the AC50 values were determined from concentration-response data modeled with the standard Hill equation. […]
# (6) Detect the assay plate in a ViewLux plate reader (PerkinElmer) with Ex=365 nm and Em=440nm. […]
structure (smiles),measurement,value
N#[O+].[C-]#N.[C-]#N.[C-]#N.[C-]#N.[C-]#N.[Fe+2].[Na+].[Na+],"activity, negative = inhibition",inactive: 3.31%

# From PubChem BioAssay AID998 (National Center for Advancing Translational Sciences (NCATS), 2007)
